The values that follow come from paper PMC7587437, “Hfq and RNase R Mediate rRNA Processing and Degradation in a Novel RNA Quality Control Process” (mBio, 2020).

This assay addresses T1, His6-RNase R (Escherichia coli, UniProt P21499 1-813).
T1 construct: 3'-5' exoribonuclease RNase R (rnr), Escherichia coli, about 92 kDa; also called His-tagged RNase R; purified RNase R; source: purified on Ni-NTA columns (GE Healthcare)
T1 sequence (looked up): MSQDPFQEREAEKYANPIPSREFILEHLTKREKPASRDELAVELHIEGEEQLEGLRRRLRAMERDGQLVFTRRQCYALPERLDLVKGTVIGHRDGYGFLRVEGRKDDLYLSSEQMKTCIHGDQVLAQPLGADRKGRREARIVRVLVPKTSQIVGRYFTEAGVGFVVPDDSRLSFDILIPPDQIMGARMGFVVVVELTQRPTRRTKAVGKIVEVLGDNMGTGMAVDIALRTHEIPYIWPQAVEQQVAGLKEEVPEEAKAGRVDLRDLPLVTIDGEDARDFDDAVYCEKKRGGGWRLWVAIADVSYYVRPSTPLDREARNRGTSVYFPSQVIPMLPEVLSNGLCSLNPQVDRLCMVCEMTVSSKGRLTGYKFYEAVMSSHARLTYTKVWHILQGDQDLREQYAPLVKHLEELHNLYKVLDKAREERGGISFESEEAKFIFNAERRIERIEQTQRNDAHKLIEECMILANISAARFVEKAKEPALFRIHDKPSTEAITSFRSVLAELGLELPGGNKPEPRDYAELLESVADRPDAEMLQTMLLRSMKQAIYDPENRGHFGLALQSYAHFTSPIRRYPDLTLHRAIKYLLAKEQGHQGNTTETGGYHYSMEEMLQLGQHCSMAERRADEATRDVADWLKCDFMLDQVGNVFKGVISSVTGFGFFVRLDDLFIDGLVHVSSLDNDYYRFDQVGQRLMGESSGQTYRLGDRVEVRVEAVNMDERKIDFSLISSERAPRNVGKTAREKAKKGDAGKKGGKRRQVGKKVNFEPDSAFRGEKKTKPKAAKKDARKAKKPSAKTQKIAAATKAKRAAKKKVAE
As to the kind of experiment: far-Western, overlay or dot blot; purified His6-RNase R (0.01-0.5 ug) resolved on 10% SDS-PAGE, blotted to nitrocellulose and renatured in situ; membrane incubated with purified His6-Hfq in solution (45 nM); detected with anti-Hfq antiserum. The settings on record: both partners purified.

B1: His6-Hfq (natural protein, Escherichia coli, UniProt P0A6X3 1-102, looked up)
chain: MAKGQSLQDPFLNALRRERVPVSIYLVNGIKLQGQIESFDQFVILLKNTVSQMVYKHAISTVVPSRPVSHHSNNAGGGTSSNYHHGSSAQNTSAQQDSEETE
notes: RNA chaperone Hfq (hfq), Escherichia coli; also called His-tagged Hfq; purified Hfq; source: purified on Ni-NTA columns (GE Healthcare)
B1: the binding result was “binds”.
